# Laboratory results from US20060211764A1, “Cell activator, process for producing cell activator and apparatus therefor” (priority 2002, published 2006).
# Assay: Lethal dose
# Conditions: in vivo
substance,measurement,value
Cyclic Poly-lactate [CPL],lethal dose,cannot be determined
